The values that follow come from PubChem BioAssay AID804 (SRMLSC, 2007).

This is a selection; strong and weak results do not stand in their true shares. Activity calls are given as the source filed them.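 Rule for the calls: active = inhibition above a set limit, 3 SD over the mean compound inhibition (cut at about 44% in these data); inactive = the rest.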

This experiment in a line: growth inhibitors of yeast BB579 in restrictive medium, primary screen, yeast lifespan-shortening project, S. cerevisiae (AID 804). The following applies: OD615, 48 h, at 10 µM, active compounds read high. The method, boiled down:
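System: DeaD yeast strain BB579; buffer or medium: CSMM-D dextrose restrictive medium; technique: OD at 615 nm; schedule: 4 h cell preincubation, 48 h compound exposure, 30 °C humidified; doses: single 10 µM dose; controls: amphotericin B 10 µg/mL, positive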
For the compound `O=C(NCC1(N2CCOCC2)CCCCC1)c1cc2ccccc2o1`, the inhibition is inactive: 10.2%.
Turning to `O=C(OC1CN2CCC1CC2)C1c2ccccc2Oc2ccccc21` (stereo not drawn), the inhibition was inactive: -39.6%.
To `COc1ccc(NC2CCN(CCc3ccccc3)CC2)c(OC)c1` belongs inactive: -14.9%; to `CN1CCN(CCOC(=O)C(O)(c2ccccc2)c2ccccc2)CC1`, inactive: -22.5%.
Consider `O=C(NCC1(N2CCOCC2)CCCCC1)c1cc(=O)[nH]c2ccccc12`, for which the inhibition was inactive: -17.5%.
Consider `N#CC1(Nc2ccccc2)CCN(CCc2ccccc2)CC1`, for which the inhibition was inactive: -17.1%.
Turning to `N/C(=N\O)c1c(N)no[n+]1[O-]`, the inhibition was inactive: -35.7%.
Turning to `O=C(OC1CN2CCC1CC2)C1c2ccccc2C=Cc2ccccc21` (stereo not drawn), the inhibition was inactive: -29.5%.
`c1ccc(CN2CCC(Nc3ccccc3)CC2)cc1`: the inhibition is inactive: -32.1%.
For the compound `CCN1CCC(Nc2cccc(F)c2)CC1`, the inhibition was inactive: -45.7%.
`Fc1ccccc1NC1CCN(Cc2ccccc2)CC1`: the inhibition is inactive: -30.8%.
To `CCC(CO)(C(=O)OC1CN2CCC1CC2)c1ccccc1` (stereo not drawn) belongs inactive: -31.8%; to `CCOc1ncccc1C(=O)NCC1(N2CCOCC2)CCCCC1`, inactive: -32%.
